Reference: patent US8497349B2, “Use of multivalent synthetic ligands of surface nucleolin for treating cancer or inflammation” (Centre National de la Recherche Scientifique (CNRS), priority 2006, dated 2013)

By UniProt entry, the sequences of proteins in these tests, tags left out. Residues count along the entry.
UniProt P19338, whole entry: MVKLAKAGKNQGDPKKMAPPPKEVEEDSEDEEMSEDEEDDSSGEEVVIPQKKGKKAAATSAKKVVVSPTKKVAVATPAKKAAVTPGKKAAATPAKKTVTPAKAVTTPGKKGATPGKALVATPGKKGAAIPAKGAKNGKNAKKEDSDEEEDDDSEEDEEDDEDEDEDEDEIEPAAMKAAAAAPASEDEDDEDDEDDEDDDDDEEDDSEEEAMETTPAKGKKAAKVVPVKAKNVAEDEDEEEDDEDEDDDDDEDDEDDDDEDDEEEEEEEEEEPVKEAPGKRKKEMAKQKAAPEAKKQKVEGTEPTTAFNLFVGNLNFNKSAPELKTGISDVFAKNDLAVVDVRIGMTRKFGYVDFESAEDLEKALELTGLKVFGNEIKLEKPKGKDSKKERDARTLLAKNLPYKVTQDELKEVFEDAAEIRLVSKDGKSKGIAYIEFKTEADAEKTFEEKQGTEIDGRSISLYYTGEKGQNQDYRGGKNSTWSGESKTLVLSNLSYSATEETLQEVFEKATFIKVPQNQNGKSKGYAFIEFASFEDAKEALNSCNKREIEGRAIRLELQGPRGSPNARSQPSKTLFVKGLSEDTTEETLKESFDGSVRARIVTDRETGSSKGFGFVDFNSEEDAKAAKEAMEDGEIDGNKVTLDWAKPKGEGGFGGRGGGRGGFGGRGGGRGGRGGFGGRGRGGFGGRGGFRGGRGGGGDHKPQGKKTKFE
UniProt P19338, 644-710: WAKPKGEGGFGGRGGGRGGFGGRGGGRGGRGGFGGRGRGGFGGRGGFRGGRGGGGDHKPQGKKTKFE
UniProt P19338, 2-308: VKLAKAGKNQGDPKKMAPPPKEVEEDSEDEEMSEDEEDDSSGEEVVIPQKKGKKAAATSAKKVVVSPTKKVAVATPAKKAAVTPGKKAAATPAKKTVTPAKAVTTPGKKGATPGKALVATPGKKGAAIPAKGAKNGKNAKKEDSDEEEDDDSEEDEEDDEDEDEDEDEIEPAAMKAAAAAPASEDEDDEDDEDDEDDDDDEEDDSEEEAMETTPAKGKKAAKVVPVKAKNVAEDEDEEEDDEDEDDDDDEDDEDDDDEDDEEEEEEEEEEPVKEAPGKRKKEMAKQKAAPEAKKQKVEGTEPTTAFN
UniProt P19338, 2-710: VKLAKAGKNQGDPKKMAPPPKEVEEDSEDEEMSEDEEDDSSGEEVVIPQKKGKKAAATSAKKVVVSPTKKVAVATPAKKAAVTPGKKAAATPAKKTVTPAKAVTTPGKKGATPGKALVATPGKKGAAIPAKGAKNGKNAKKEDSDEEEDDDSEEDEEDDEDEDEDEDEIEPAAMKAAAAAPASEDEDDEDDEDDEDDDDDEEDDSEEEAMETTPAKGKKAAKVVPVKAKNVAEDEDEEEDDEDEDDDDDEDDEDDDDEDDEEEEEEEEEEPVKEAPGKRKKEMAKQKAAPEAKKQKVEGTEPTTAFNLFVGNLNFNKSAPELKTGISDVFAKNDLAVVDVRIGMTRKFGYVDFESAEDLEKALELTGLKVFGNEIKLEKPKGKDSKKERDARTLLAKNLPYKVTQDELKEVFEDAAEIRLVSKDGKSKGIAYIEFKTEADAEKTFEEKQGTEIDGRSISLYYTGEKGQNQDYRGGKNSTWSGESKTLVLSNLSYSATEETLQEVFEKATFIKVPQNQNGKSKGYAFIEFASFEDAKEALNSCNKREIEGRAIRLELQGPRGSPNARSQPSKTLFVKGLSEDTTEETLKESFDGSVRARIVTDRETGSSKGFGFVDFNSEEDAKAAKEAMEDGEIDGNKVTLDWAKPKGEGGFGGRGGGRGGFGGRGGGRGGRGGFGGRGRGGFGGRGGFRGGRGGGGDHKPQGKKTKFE
UniProt P19338, 309-710: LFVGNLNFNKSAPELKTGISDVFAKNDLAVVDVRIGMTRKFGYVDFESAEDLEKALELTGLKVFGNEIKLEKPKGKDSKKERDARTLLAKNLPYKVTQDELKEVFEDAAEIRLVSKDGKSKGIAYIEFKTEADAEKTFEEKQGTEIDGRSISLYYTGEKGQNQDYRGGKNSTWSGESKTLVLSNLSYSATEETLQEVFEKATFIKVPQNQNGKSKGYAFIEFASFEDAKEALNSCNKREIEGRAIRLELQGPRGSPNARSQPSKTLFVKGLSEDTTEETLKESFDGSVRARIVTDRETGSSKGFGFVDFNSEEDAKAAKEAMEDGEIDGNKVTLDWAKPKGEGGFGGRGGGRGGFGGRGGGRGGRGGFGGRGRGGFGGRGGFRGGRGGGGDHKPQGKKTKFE

How the values were obtained:
NIH-3T3 cells = assay: Proliferation of NIH-3T3 cells stimulated by FGF-2 (tritiated thymidine incorporation); format: cell-based; details: 0.5 μM; 0.2 nM FGF-2
Procedure: FIG. 5. Effect of HB-19 on the proliferation of NIH-3T3 cells stimulated by 0.2 nM FGF-2 (A) or by 5% foetal calf serum (B). Quiescent NIH-3T3 cells are stimulated by FGF-2 or by 5% serum in the presence or not of HB19 at the concentrations indicated. After 24 hours of incubation, cell proliferation was determined by measuring the incorporation of tritiated thymidine. The results are given as a percentage with respect to the control stimulated by HARP (100%). MSD (threshold), (**p<0.01 and ***p<0.001).
In order to study whether the effect of HB-19 on the inhibition of cell proliferation is specific for a given growth factor such as HARP, two series of experiments were carried out which consisted in studying the effect of HB-19 on NIH 3T3 cells stimulated by: […]

surface nucleolin = surface nucleolin (Homo sapiens, UniProt P19338); assay: Surface nucleolin expression of MDA-MB 231 cells (biotinylated HB-19 pull-down, immunoblot); format: cell-based; design: cell expression of nucleolin by MDA-MB 231 cells; endogenous in cells; host or cells: MDA-MB 231 cells; details: 10 μM
Procedure: FIG. 16. Inhibitory effect of HB-19, Nucant 3, Nucant 6 and de Nucant 7 on cell expression of nucleolin by MDA-MB 231 cells. MDA-MB 231 cells were cultured in 75 cm^2 in DMEM containing 10% foetal calf serum. After 2 days in culture, subconfluent cells (about 3×10^6 cell per vial) were treated with 10 μM of HB-19, Nucant 3, Nucant 6 or Nucant 7 for 24 or 48 hours. Lines C represent untreated cells. After 24 or 48 hours of treatment, cells were washed in PBS and incubated with 10 ml of DMEM containing 1% foetal calf serum and biotinylated HB-19 (5 μM) for 45 minutes at room temperature. After intensive washing in PBS containing 1 mM EDTA (PBS-EDTA), cytoplasmic extracts were prepared using a lysis buffer containing 20 mM Tris HCl, pH 7.6, 150 mM NaCl, 5 mM MgCl2, 0.2 mM phenylmethylsulfonyl fluoride, 5 mM β-mercaptoethanol, aprotinin (1000 U/ml) and 0.5% Triton X-100. The complex formed between surface nucleolin and biotinylated HB-19 was isolated purification of the extracts using avidine-agarose (100 μl; ImmunoPure Immobilized Avidin, Pierce Chemical Company, USA) in PBS-EDTA. After 2 hours of incubation at 4° C., the avidine-agarose samples were thoroughly washed with PBS-EDTA. These samples containing purified surface nucleolin (A material corresponding to 2×10^6 cells) and crude cell extracts (B and C; material corresponding to 4×10^5 cells) were denatured by heating in electrophoresis buffer containing SDS and analysed by SDS-PAGE. […] Electrophoresis analysis after staining with Coomassie Blue is shown in C. Line M corresponds to molecular weight markers.

IL-8 = IL-8 production by HUVEC cells stimulated by LPS (ELISA); format: cell-based, human; details: 5 μM of HB-19; LPS 100 ng/ml; 20 hours
Procedure: FIG. 21. Inhibition by HB-19 of IL-8 production and ICAM-1 expression by human umbilical vascular endothelial cells (HUVEC) stimulated by LPS. HUVEC cells at 10 000 cells/cm^2 were cultured in 96-well plates in EBM-2 medium containing 2% foetal calf serum. Cells in the absence or presence of 5 μM of HB-19 were stimulated with Escherichia coli serotype 055:B5 at 100 ng/ml. Cell cultures were incubated at 37° C. in an incubator with 5% CO2 for 20 hours and IL-8 and ICAM-1 protein levels were measured by ELISA. HUVEC cells in the presence or absence of 5 μM of HB-19 were used as the control for base levels.
HUVEC cells at a concentration of 10 000 cells/cm^2 were cultured in 96-well plates in EBM-2 medium containing 2% foetal calf serum. Cells in the absence or presence of 5 μM of HB-19 were stimulated by LPS from Escherichia coli serotype 055:B5 at 100 ng/ml. Cell cultures were incubated at 37° C. in an incubator with 5% CO2 for 20 hours. Levels of IL-8 and ICAM-1 were measured by ELISA. HUVEC cells in the absence or presence of 5 μm of HB-19 were used as a control to show the base level.

human nucleolin = target: T1, human nucleolin (Homo sapiens, UniProt P19338); assay: Binding of biotinylated HB19 to nucleolin constructions (avidine-agarose purification)
T1 construct: whole nucleolin and the N- and C-terminal parts contain amino acids 1-707, 1-308 and 309-707 respectively; made in house; host or cells: in vitro transcription/translation in rabbit reticulocyte lysates
Description: FIG. 1. A. Structure of nucleolin protein. Human nucleolin consists of 707 amino acids. Nucleolin can be broken down into two main parts: (3,4): N-terminal (aa 1-308) and C-terminal (309-706). The N-terminal domain consists of 4 long acid domains, consisting of an uninterrupted repetition of glutamic acid and aspartic acid (A1, A2, A3, A4). The C-terminal domain, consisting of alternating hydrophobic and hydrophilic regions forming 4 areas of binding to RNA called RBDs (for <<RNA Binding Domains>>: I, II, III, IV) and its extremity (aa 644-707) carries the highly basic RGG domain comprised of Arg-Gly-Gly repetitions. B. Identification of the binding domain of compound HB19 to nucleolin: the RGG domain. Nucleolin constructions corresponding to the N- and C-terminal areas were obtained by in vitro transcription/translation in a system using rabbit reticulocyte lysates. Thus, whole nucleolin and the N- and C-terminal parts contain amino acids 1-707, 1-308 and 309-707 respectively labelled with [^35S] Met/Cys were produced. The labelled crude product was then incubated with biotinylated HB19 and the complexes were purified on an avidine-agarose column. As expected, whole nucleolin interacts with HB19. […] The first construction corresponds to cDNA coding for the C-terminal part of human nucleolin including the 4 RBDs and the RGG domain, in fusion with GST protein (Glutathione S-Transferase) to allow detection with anti-GST antibodies. The other constructions, also in fusion with GST, correspond to this same part but one or more domains shorter. All these proteins are produced by E. coli. The capacity of HB19 to interact with each construction was tested by incubating crude bacterial extracts, expressing different nucleolin constructions, with biotinylated HB19 which was then purified by fixing to Avidine-agarose.

presence of surface nucleolin compared to untreated cells (surface nucleolin; 24 hours of treatment): reduction | presence of surface nucleolin (surface nucleolin; 48 hours of treatment): non-detectable | interaction with RGG domain alone (human nucleolin; GST fusion constructions produced by E. coli): enough for this interaction | interaction with N-terminal part of nucleolin (human nucleolin; amino acids 1-308): does not interact at all | interaction with whole nucleolin (human nucleolin; amino acids 1-707, [35S] labelled): interacts | interaction with C-terminal part of nucleolin (human nucleolin; amino acids 309-707): contains the target
Structure (SMILES): CCCC[C@H](NC(=O)[C@H](CCCCNC(=O)[C@H](CCCNC(=N)N)NC(=O)[C@@H]1CCCN1C[C@@H](N)CCCCN)NC(=O)[C@H](CCC(=O)O)NC(=O)[C@H](CCCCNC(=O)[C@H](CCCNC(=N)N)NC(=O)[C@@H]1CCCN1C[C@@H](N)CCCCN)NC(=O)[C@@H]1CCCN1C(=O)CNC(=O)[C@H](CCCCNC(=O)[C@H](CCCNC(=N)N)NC(=O)[C@@H]1CCCN1C[C@@H](N)CCCCN)NC(=O)[C@H](CCCCN)NC(=O)[C@H](CCCCNC(=O)[C@H](CCCNC(=N)N)NC(=O)[C@@H]1CCCN1C[C@@H](N)CCCCN)NC(=O)[C@H](CCCNC(=N)N)NC(=O)[C@@H]1CCCN1C[C@@H](N)CCCCN)C(N)=O [HB19, 5[Kpsi(CH2N)PR]-TASP]
inhibition of proliferation of cells stimulated by FGF-2 (NIH-3T3 cells): capable of inhibiting | cytotoxic effect (surface nucleolin; MDA-MB 231 cells): no cytotoxic effect | degree of inhibition of IL-8 production (IL-8): around 50%
